# Yeast mating assay B: variants of the scFv Ab-14

The target is the same throughout: PDVDLGDISGINAS, from the HR2 region of SARS-CoV-2 spike.

Ab-14 is the parent antibody, in scFv form: VH, then the linker GGGGSGGGGSGGGGS, then VL. The heavy chain is unchanged in all variants.
VH: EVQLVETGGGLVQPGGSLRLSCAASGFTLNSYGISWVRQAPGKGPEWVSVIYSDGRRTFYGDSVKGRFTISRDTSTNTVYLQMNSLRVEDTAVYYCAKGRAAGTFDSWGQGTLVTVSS
VL: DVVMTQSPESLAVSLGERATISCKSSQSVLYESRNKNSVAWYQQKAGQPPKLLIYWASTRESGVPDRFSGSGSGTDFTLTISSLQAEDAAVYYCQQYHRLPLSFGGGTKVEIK

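Phage display of a naive human antibody library on the peptide gave the parent. These sequences belong to a second round, designed from the earlier measurements on random variants of the parent. Group labels follow the data file (Ctrl: baseline library sampled from a position-specific scoring matrix, with some repeated check sequences; En: ensemble of fine-tuned language models; GP: Gaussian process model; HC: hill climbing; Gen: genetic algorithm; Gibbs: Gibbs sampling; a sequence that several methods proposed may carry one label only). The scFvs were displayed on barcoded MATa yeast, the peptide on MATalpha yeast. Mating (16 h, 30 °C) was followed by selection of diploids and sequencing of their barcodes. A regression on co-assayed BCL2-family reference pairs converts the normalised counts of each replicate to an apparent Kd. There are six technical replicates.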

Variants are written as CDR1, CDR2 and CDR3 of the light chain (limits as in the source). Parent: KSSQSVLYESRNKNSVA, WASTRES, QQYHRLPLS.
Each Kd is an estimate from the mating assay, the geometric mean of the replicates in which the pair was seen; lower is stronger.
An entry "nd" has no value in the source: the pair was not observed among the diploids in any replicate. This suggests poor binding but is not conclusive.
The authors' rule: three or more of the six replicates give a measured affinity, fewer mean a poor binder.
Values of this round are not directly comparable with the first-round values of the same sequences.
Nonspecific signal, from three strains lacking the peptide, appeared in 4% of pairings of all light chain designs, centred on 430 nM (5% of these signals below 38 nM); values are not corrected for it. For each scFv, signals with the empty controls are counted beside the result.

nd (0 of 6 replicates; controls 0 of 18) for KLSMEPAWLTGQMDSIA / HVEIRWA / QQYHKLPLI [En_Gibbs].
2.3 nM (6 of 6 replicates; controls 1 of 18) for KISQLGLYESRNKNSVA / NANTRES / QQYHRLPLS [GP_Gibbs].
200 nM (2 of 6 replicates; controls 1 of 18) for KLSQSVGYHSRNKSRVA / DNSTRES / QQYDRLPLS [En_HC].
1.8 nM (6 of 6 replicates; controls 3 of 18) for KLGGVTEYEMRNKNSVA / QMTTREN / QQYHRLPLS [En_HC].
460 pM (6 of 6 replicates; controls 4 of 18) for KLSQSDLYESRNKNAVA / QASTRES / QQYHRLPLS [GP_Gen].
nd (0 of 6 replicates; controls 0 of 18) for KSSQSVLYESRNDNSVA / WASTRES / QQYPHLPLS [Ctrl].
62 nM (6 of 6 replicates; controls 1 of 18) for KSSQSWDGESGNKNSVA / WASTRES / QQYHRLPLS [Ctrl].
4.2 nM (6 of 6 replicates; controls 0 of 18) for KLSMITGHMSVSKNNVA / EMVTREK / QQYNRLPLS [En_Gen].
1.1 nM (6 of 6 replicates; controls 1 of 18) for KFSQGFLYEERQKNSVA / NASQRES / QQYHRLPLS [GP_Gibbs].
nd (0 of 6 replicates; controls 0 of 18) for KSSPSVLYESLNKNSVA / WASTRES / QQYHRLPPE [Ctrl].
9.3 nM (6 of 6 replicates; controls 2 of 18) for KSGQGVLYESRNKNSVA / GASQRSS / QQYHRLPLS [GP_HC].
3.9 nM (6 of 6 replicates; controls 1 of 18) for KLSQSQLYESRNKNNVA / NASTRED / QQYHRLPLS [GP_Gen].
2.7 nM (6 of 6 replicates; controls 0 of 18) for KSPQSMLYESRNKNSVA / HASTRES / QQYHRLPLS [Ctrl].
1.4 nM (6 of 6 replicates; controls 1 of 18) for KIGATLNQLMHQKNNVA / DLVMREK / QQYHRLPLS [En_Gen].
130 nM (6 of 6 replicates; controls 0 of 18) for MISQMFEGLSTSKNPVA / QVSTRCE / QQYHRLPLS [En_HC].
240 nM (6 of 6 replicates; controls 0 of 18) for KLYQATNMTSSMRNNVA / DLNERER / QQYFRLPLS [En_HC].
1.6 nM (6 of 6 replicates; controls 0 of 18) for KLSQSVLYQMRQKNSVA / QASTRMS / QQYHRLPLS [GP_Gibbs].
6.3 nM (6 of 6 replicates; controls 1 of 18) for HISDLIMVASRNHNSVA / DESTRPD / QQYHRLPLS [En_HC].
750 pM (6 of 6 replicates; controls 1 of 18) for KMSQSVLMESRNKNSVA / EASTRES / QQYHRLPLS [GP_Gen].
910 pM (6 of 6 replicates; controls 0 of 18) for KFPQSELYESRNKNSVA / NASTRES / QQYHRLPLS [GP_Gen].
16 nM (6 of 6 replicates; controls 0 of 18) for KSSQSVLDESRNTNSVA / WASTRES / QQYHRLPLS [Ctrl].
690 pM (6 of 6 replicates; controls 0 of 18) for KSSQVYLYESRNKNSVA / GASTRED / QQYHRLPLS [GP_HC].
6.9 nM (6 of 6 replicates; controls 0 of 18) for TISQMTSLFSQSINNVA / EVSTREE / QQYDRLPLM [En_Gen].
3.4 nM (6 of 6 replicates; controls 1 of 18) for QVQAFNEHEKDQTQAMA / EATMRDA / QQYERLPLS [En_Gibbs].
1.6 nM (6 of 6 replicates; controls 0 of 18) for KLSQSEPYERRNKNSVA / NASYRMS / QQYHRLPLS [GP_Gibbs].
6.8 nM (1 of 6 replicates; controls 0 of 18) for MISQLMNMGSFAINSVA / QAQTRNE / QQYDRLPLI [En_Gen].
1.1 nM (6 of 6 replicates; controls 1 of 18) for KVVQSHDYESRNKQSVA / DASTRCS / QQYHRLPLS [GP_Gibbs].
23 nM (5 of 6 replicates; controls 0 of 18) for KLFDELSSEQVNARAVA / DALATHE / QQYVMLPLS [En_Gibbs].
nd (0 of 6 replicates; controls 1 of 18) for KQSYSVEYTSRNKNSVA / WASTRES / QQYHRLPLS [Ctrl].
2.5 nM (6 of 6 replicates; controls 1 of 18) for ALGDVTRMESNKKNSIA / DMNTRES / QQYHRLPLS [En_HC].
4.7 nM (6 of 6 replicates; controls 0 of 18) for KLSQTVNFFGHAINSVA / EMETREN / QQYDRLPLS [En_HC].
nd (0 of 6 replicates; controls 0 of 18) for KSSQSMLYEEQNKQSVA / WASTRPS / QQYHRLPLS [Ctrl].
480 pM (6 of 6 replicates; controls 1 of 18) for KLSQSVLYESRNKNSVA / GANTRES / QQYHRLPLS [GP_Gen].

Excerpt, the first 4 entries:

CDR-L1,CDR-L2,CDR-L3,group,Kd (apparent),seen in,signal with controls
KLSMEPAWLTGQMDSIA,HVEIRWA,QQYHKLPLI,En_Gibbs,nd,0/6,0/18
KISQLGLYESRNKNSVA,NANTRES,QQYHRLPLS,GP_Gibbs,2.3 nM,6/6,1/18
KLSQSVGYHSRNKSRVA,DNSTRES,QQYDRLPLS,En_HC,200 nM,2/6,1/18
KLGGVTEYEMRNKNSVA,QMTTREN,QQYHRLPLS,En_HC,1.8 nM,6/6,3/18

Source: Li et al. 2023 (doi:10.1038/s41467-023-39022-2), MIT Lincoln Laboratory and A-Alpha Bio; data file from the FLAb repository.